pIC50: −log10 of the molar value.
Molecular target: CYP2C19 (Homo sapiens, UniProt P33261)
Conditions: microsomes

By UniProt entry, the sequences of proteins in these tests, tags left out.
UniProt P33261, whole entry: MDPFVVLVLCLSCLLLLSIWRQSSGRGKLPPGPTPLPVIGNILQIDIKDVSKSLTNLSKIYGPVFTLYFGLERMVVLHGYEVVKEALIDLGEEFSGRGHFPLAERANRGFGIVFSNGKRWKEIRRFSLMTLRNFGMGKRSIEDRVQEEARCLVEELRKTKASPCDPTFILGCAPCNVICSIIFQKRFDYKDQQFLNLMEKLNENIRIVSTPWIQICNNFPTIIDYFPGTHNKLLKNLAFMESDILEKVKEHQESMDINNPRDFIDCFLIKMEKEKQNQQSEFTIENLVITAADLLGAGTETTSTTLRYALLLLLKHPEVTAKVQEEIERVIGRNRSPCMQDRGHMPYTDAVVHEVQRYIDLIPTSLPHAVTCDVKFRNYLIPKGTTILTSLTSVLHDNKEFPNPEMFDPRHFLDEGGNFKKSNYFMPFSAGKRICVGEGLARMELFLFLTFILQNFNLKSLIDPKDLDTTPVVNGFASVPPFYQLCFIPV

“(S)-(+)-N-3-benzylnirvanol [reference compound]” gave a pIC50 of 6.35.

From PMC11969009 (Nature Communications, 2025)
